{"source": "paper PMC12641067", "about": "(Clinical Pharmacology and Therapeutics, 2025)", "origin": "cited, not measured here", "tested_on": "OAT1", "design": "method as in ref 9 (a number printed in a supplementary file, which may have a reference list of its own: not looked up in the article's list)", "conditions": "substrate PDA; HEK293; read-out: In vitro OAT1 IC50; cited from earlier work", "data": [{"smiles": "CCCN(CCC)S(=O)(=O)c1ccc(C(=O)O)cc1", "note": "[PROB, probenecid]", "values": [{"measurement": "IC50", "result": 22, "unit": "µM"}]}]}
